Data from PMC5769128, “Human UDP-Glucuronosyltransferase 2B4 and 2B7 Are Responsible for Naftopidil Glucuronidation in Vitro” (Frontiers in Pharmacology, 2018).

T1: UGT2B7 (Homo sapiens, UniProt P16662)
T1 sequence (P16662 24-529): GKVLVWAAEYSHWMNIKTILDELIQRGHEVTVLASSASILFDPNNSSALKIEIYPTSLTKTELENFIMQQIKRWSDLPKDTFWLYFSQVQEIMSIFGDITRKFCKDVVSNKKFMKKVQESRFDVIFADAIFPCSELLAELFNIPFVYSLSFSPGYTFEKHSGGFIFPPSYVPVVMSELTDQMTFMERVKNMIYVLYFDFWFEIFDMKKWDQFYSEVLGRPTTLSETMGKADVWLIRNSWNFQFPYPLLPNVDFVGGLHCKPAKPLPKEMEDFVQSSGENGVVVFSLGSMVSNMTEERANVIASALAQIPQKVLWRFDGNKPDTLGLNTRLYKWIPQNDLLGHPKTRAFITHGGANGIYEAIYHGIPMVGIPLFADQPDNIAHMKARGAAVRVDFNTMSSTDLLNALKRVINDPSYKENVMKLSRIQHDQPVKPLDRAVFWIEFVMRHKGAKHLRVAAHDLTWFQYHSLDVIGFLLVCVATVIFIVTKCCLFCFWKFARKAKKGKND


Tests used:
[1] = molecular target: T1, UGT2B7; details: summary in discussion
[2] = substrate: COc1ccccc1N1CCN(C[C@@H](O)COc2cccc3ccccc23)CC1; assay: cells, lysate or membranes named; details: other: NAF glucuronidation by UGT1A9; pH 7.5; 37.0 °C
[3] = substrate: COc1ccccc1N1CCN(C[C@H](O)COc2cccc3ccccc23)CC1; assay: cells, lysate or membranes named; details: other: NAF glucuronidation by UGT1A9; pH 7.5; 37.0 °C

Molecule | concentration at which UGT2B7 is competitively inhibited [1] | Km [2] | Km [3]
COc1ccccc1N1CCN(C[C@@H](O)COc2cccc3ccccc23)CC1 [R(+)-NAF] | 10 to 100 µM |  | 
COc1ccccc1N1CCN(C[C@H](O)COc2cccc3ccccc23)CC1 [S(-)-NAF] | 10 to 100 µM |  | 
recombinant human UGT1A9 (Homo sapiens) (protein) GKLLVVPMDGSHWFTMRSVVEKLILRGHEVVVVMPEVSWQLGRSLNCTVKTYSTSYTLEDLDREFKAFAHAQWKAQVRSIYSLLMGSYNDIFDLFFSNCRSLFKDKKLVEYLKESSFDAVFLDPFDNCGLIVAKYFSLPSVVFARGILCHYLEEGAQCPAPLSYVPRILLGFSDAMTFKERVRNHIMHLEEHLLCHRFFKNALEIASEILQTPVTEYDLYSHTSIWLLRTDFVLDYPKPVMPNMIFIGGINCHQGKPLPMEFEAYINASGEHGIVVFSLGSMVSEIPEKKAMAIADALGKIPQTVLWRYTGTRPSNLANNTILVKWLPQNDLLGHPMTRAFITHAGSHGVYESICNGVPMVMMPLFGDQMDNAKRMETKGAGVTLNVLEMTSEDLENALKAVINDKSYKENIMRLSSLHKDRPVEPLDLAVFWVEFVMRHKGAPHLRPAAHDLTWYQYHSLDVIGFLLAVVLTVAFITFKCCAYGYRKCLGKKGRVKKAHKSKTH |  | 7 µM | 3 µM
